This experiment concerns Substance-K receptor (Oryctolagus cuniculus). As to the kind of experiment: In Vitro evaluation for the functional activity towards Tachykinin receptor 2.

SMILES strings stand for the structures.

What is called pKb is the negative decadic logarithm of the Kb, by convention in mol/L.

`O=C1CCC(=O)N[C@@H](Cc2c[nH]c3ccccc23)C(=O)N[C@@H](Cc2ccccc2)C(=O)NC(Cc2ccccc2)CN1` (stereo partly specified) returned a pKb of 5.8.
